Legend:
[1] = Selectivity for gamma secretase-mediated amyloid beta (1 to 40) production over gamma secretase-mediated notch processing
[2] = AUC in brain of patient with Alzheimer's disease at 450 mg/kg; type: ADME, organism-based; design: dose 450 mg/kg; details: human
[3] = Ratio of drug level in plasma to CSF in healthy human at 600 mg/kg, po administered as single dose; type: ADME, organism-based; design: dose 600 mg/kg, route oral; details: in vivo
Homo sapiens = experiment: AUC in plasma of patient with Alzheimer's disease at 450 mg/kg

Work on `O=S(=O)(N[C@H](CO)C(C(F)(F)F)C(F)(F)F)c1ccc(Cl)s1` [BEGACESTAT] yielded a Selectivity ratio [1] of 14, an AUC [2] of 2.33 µg·h/mL and a Ratio [3] of 10. The AUC (Homo sapiens) was 2.33 µg·h/mL.

— ChEMBL document CHEMBL1156244, “Recent advances in the identification of gamma-secretase inhibitors to clinically test the Abeta oligomer hypothesis of Alzheimer's disease” (J Med Chem, 2009)
